Reference: patent US10973820B2, “Compounds for treatment of diseases related to DUX4 expression” (Facio Intellectual Property B.V., priority 2017, dated 2021)

Chains of the proteins cited; added tags and fusions are not shown. Lines headed by an entry give the natural chain unless they say otherwise; changes in a name come on top.
UniProt P48730: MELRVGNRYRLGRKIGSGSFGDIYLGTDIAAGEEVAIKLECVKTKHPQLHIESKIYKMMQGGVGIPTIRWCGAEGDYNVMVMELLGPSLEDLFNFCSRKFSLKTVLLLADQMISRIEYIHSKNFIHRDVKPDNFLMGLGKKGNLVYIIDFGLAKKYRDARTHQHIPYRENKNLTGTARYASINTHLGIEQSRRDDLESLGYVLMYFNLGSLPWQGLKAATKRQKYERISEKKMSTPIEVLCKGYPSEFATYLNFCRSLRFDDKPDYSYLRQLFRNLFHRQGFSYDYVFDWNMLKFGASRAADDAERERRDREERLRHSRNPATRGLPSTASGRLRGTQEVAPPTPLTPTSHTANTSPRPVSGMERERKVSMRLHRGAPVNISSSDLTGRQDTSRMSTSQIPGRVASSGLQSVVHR
UniProt P49674: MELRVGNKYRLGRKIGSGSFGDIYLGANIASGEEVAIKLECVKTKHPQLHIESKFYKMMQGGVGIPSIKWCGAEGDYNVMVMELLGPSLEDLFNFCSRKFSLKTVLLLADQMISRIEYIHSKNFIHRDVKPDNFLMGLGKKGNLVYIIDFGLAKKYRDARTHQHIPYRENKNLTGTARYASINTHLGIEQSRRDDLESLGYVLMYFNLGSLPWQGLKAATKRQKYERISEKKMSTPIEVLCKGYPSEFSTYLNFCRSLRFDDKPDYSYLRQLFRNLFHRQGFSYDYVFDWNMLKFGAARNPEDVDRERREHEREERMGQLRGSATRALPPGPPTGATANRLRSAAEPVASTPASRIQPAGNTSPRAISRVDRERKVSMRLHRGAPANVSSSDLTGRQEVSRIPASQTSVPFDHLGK

Columns and labels:
CK1 δ = CK1 δ (Homo sapiens, UniProt P48730); assay: inhibition of CK1 δ by CK1 inhibitors; assay type: biochemical
CK1 ε = CK1 ε (Homo sapiens, UniProt P49674); assay: inhibition of CK1 ε by CK1 inhibitors; assay type: biochemical

SMILES: CN1Cc2nccc(-c3cn(C)nc3-c3ccc(F)cc3)c2C1=O [Compound E]
- IC50 (CK1 δ): 31 nM
- IC50 (CK1 ε): 84 nM
